PMC7714403, “TP-0903 is active in models of drug-resistant acute myeloid leukemia” (JCI Insight, 2020)

Molecular target: T1, AXL (Homo sapiens, UniProt P30530)
T1 construct: purchased Eurofins DiscoverX
T1 sequence (P30530 26-894): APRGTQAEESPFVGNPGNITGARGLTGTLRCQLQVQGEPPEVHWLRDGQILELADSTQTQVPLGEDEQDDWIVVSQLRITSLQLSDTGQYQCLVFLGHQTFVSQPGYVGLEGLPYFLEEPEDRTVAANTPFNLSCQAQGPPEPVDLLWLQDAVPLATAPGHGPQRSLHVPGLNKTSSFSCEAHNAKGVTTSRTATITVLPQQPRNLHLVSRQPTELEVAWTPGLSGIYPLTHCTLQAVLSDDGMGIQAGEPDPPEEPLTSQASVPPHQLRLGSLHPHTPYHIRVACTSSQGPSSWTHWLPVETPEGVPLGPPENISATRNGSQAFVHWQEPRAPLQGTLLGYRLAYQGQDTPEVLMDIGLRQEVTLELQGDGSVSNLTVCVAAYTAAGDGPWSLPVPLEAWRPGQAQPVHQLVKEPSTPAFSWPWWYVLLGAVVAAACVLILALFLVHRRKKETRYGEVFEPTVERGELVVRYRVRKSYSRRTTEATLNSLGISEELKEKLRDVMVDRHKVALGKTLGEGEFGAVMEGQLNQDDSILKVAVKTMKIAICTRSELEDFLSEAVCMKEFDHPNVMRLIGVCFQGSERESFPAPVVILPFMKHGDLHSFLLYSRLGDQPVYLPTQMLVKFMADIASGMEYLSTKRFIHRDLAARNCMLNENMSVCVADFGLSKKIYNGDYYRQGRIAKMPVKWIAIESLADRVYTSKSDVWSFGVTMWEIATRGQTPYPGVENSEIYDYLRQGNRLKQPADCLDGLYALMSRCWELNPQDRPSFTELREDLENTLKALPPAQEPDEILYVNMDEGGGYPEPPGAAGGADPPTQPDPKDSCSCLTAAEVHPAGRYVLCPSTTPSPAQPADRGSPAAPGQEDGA
Assay: KdELECT binding assay

In the case of `CN1CCN(Cc2ccc(Nc3ncc(Cl)c(Nc4ccccc4S(=O)(=O)N(C)C)n3)cc2)CC1` [TP-0903], the Kd is reported as 8.2 nM.
